# Antibody variant affinities, Ab-14 heavy chain, assay 1

Values reported by Engelhart et al. 2022, doi:10.1038/s41597-022-01779-4 (FLAb copy).

Target peptide (SARS-CoV-2 spike, HR2 region): PDVDLGDISGINAS

Parent: Ab-14, a human scFv built as VH, a 15-residue (Gly4Ser)3 linker, VL. Only the CDRs of the heavy chain vary.
VH: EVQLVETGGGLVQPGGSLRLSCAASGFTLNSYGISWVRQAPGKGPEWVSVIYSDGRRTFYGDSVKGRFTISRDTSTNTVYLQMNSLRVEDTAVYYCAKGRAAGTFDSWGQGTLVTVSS
VL: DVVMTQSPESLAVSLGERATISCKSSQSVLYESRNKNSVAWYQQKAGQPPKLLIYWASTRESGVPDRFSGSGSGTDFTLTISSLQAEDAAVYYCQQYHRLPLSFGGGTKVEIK

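The starting antibody came from a phage panning campaign against this peptide. In library AAYL49, one, two or three CDR residues were substituted; doubles and triples were drawn at random. Affinity was read by AlphaSeq, a pooled yeast mating assay with surface-displayed partners. The frequency of each diploid, read from paired DNA barcodes, reflects how well the two displayed proteins bind. Each replicate has its own calibration line, from reference interactions of the BCL2 family. Each pool was mated in three replicate cultures.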

The parent's heavy chain CDRs are GFTLNSYGIS, VIYSDGRRTFYGDSVK, GRAAGTFDS; each variant's own CDRs replace them letter for letter.
Every variant below is changed at S53 of the VH (sequential numbering).
Values are apparent Kd, the geometric mean of the replicates that gave a signal; lower means stronger binding.
An entry "nd" has no value in the source: the pair was not observed among the diploids in any replicate. This suggests poor binding but is not conclusive.
For reference, the parent read 4.4 nM as the reference entry and 13 µM (one replicate of three) as a member of this library.

Variant GFTLNYYGIS, VIYMDGRRTFYGDSVK, GRAAGPFDS gave 2.1 µM (2 of 3 replicates; controls 0 of 9).
Variant GFTLNSYGIS, VIYKDGRRTFGNDSVK, GRAAGTFDS gave nd (0 of 3 replicates; controls 1 of 9).
Variant GFTLNSYGIM, VIYPDGRRTFYGDPVK, GRAAGTFDS gave nd (0 of 3 replicates; controls 1 of 9).
Variant GFTLNSYGIS, VIYPDGRRTFYCDSVA, GRAAGTFDS gave 290 nM (3 of 3 replicates; controls 0 of 9).
Variant GFTLNSYGIS, KIYEDGRRTFYGDSVK, GRAAGTFES gave nd (0 of 3 replicates; controls 1 of 9).
Variant KFTLNSYGIS, VIYIIGRRTFYGDSVK, GRAAGTFDS gave nd (0 of 3 replicates; controls 0 of 9).
Variant GFTLNSYGIS, VIQMDGRRTFYGDSVK, GRAAGAFDS gave nd (0 of 3 replicates; controls 0 of 9).
Variant GFTLGSYGIS, VIYPDGRRTKYGDSVK, GRAAGTFDS gave nd (0 of 3 replicates; controls 0 of 9).
Variant GFTLNSYGIS, VIGMDGRRTFYGDSTK, GRAAGTFDS gave 15 µM (2 of 3 replicates; controls 0 of 9).
Variant GKTLNSYGIS, VIYVDGRPTFYGDSVK, GRAAGTFDS gave nd (0 of 3 replicates; controls 4 of 9).
Variant GFTLNSYGIS, VIYNDGRSTFYGISVK, GRAAGTFDS gave nd (0 of 3 replicates; controls 0 of 9).
Variant GFTLNNYGIS, VIYYDGRRTFYGDSVW, GRAAGTFDS gave 450 nM (3 of 3 replicates; controls 0 of 9).
Variant GFTLNSYGIS, VIYCDGRRTFYGDSVK, GNYAGTFDS gave nd (0 of 3 replicates; controls 1 of 9).
Variant GFTLNSYGIS, VIYRDGRRTFYGDSVK, GRAAGTFDS gave nd (0 of 3 replicates; controls 0 of 9).
Variant GFTLNSYGIS, VIYWDGRRTFYGDSVK, GCAAGTFDR gave nd (0 of 3 replicates; controls 1 of 9).
Variant GFTLNSYGIS, VIYVDGRRTFYGDSVK, GDAWGTFDS gave nd (0 of 3 replicates; controls 0 of 9).
Variant GFTLNSYGIR, VIYRDGRRTSYGDSVK, GRAAGTFDS gave nd (0 of 3 replicates; controls 2 of 9).
Variant GFTLNVYGIS, VIYRDGRRTFYGDSVK, GRAAITFDS gave 420 µM (1 of 3 replicates; controls 0 of 9).
Variant GFTLESYGSS, VIYCDGRRTFYGDSVK, GRAAGTFDS gave 1.6 µM (1 of 3 replicates; controls 1 of 9).
Variant GFTLNSYGIS, VIYMDGRRTFWFDSVK, GRAAGTFDS gave nd (0 of 3 replicates; controls 0 of 9).
Variant GFTLNSYGIL, VIYIDGRRTFYGDSVK, GRAPGTFDS gave 48 µM (3 of 3 replicates; controls 6 of 9).
Variant GFTLNSYGIS, VIYEDGRRTFYGDSVK, GTAAGTFDS gave nd (0 of 3 replicates; controls 2 of 9).
Variant GFTLRSYGIS, VIYFDGRRTFYGDSVK, GRALGTFDS gave 46 µM (2 of 3 replicates; controls 4 of 9).
Variant GFTLNSYGIS, VIYCRGRRTFYSDSVK, GRAAGTFDS gave nd (0 of 3 replicates; controls 2 of 9).
Variant GFTLTSYGIS, VIYTDGRRTFYGDSVK, GRQAGTFDS gave 33 nM (2 of 3 replicates; controls 0 of 9).
Variant GHTLNSYGIS, VIYWDGRRTFYGDPVK, GRAAGTFDS gave 17 µM (3 of 3 replicates; controls 2 of 9).
Variant GFTLNSVGIS, VIYMDGRRTFYGDSVK, GRAAGTFDS gave 160 µM (2 of 3 replicates; controls 5 of 9).
Variant GFTLNSYGIS, VIYHDGRRTFYGDSVQ, GRAAGRFDS gave nd (0 of 3 replicates; controls 0 of 9).
Variant GFTLNSYGIS, VIYPDGRRTFYGDSVK, GLAAGTFMS gave 89 nM (3 of 3 replicates; controls 1 of 9).
Variant GFTSNSYGIS, VIYEDGRVTFYGDSVK, GRAAGTFDS gave nd (0 of 3 replicates; controls 1 of 9).
Variant GFTTNSYGIS, VIYADGERTFYGDSVK, GRAAGTFDS gave 5.2 µM (2 of 3 replicates; controls 1 of 9).
Variant GFTLNSYGIS, KIYWDGRRTFYGDSVK, GRADGTFDS gave nd (0 of 3 replicates; controls 0 of 9).
Variant GFFLNSYGIS, VIYVDGRRHFYGDSVK, GRAAGTFDS gave 5.4 µM (2 of 3 replicates; controls 4 of 9).
Variant GFTLNSYGIS, VIYIDGRRTFYGDSVK, GRAAGTFAS gave 210 µM (2 of 3 replicates; controls 5 of 9).
Variant GFRLNSYGIA, VIYLDGRRTFYGDSVK, GRAAGTFDS gave 10 µM (1 of 3 replicates; controls 3 of 9).
Variant GFTLNSYQIS, VIYCDGRRTFYGGSVK, GRAAGTFDS gave 2.0 µM (1 of 3 replicates; controls 1 of 9).
Variant GFTLNSYGTD, VIYGDGRRTFYGDSVK, GRAAGTFDS gave 930 nM (1 of 3 replicates; controls 0 of 9).
Variant GFTLNSYGIS, CIYPDGRSTFYGDSVK, GRAAGTFDS gave 130 µM (1 of 3 replicates; controls 1 of 9).
Variant GFTLISYGIS, VIYEDGRRTFYGDSVK, GCAAGTFDS gave nd (0 of 3 replicates; controls 1 of 9).
Variant GFTLNSYGIS, VIYADGRRTFYGRSVK, GRLAGTFDS gave 21 nM (3 of 3 replicates; controls 2 of 9).
Variant GFTLNSYGIS, VIYKDGRRTFYSDSVK, GNAAGTFDS gave 98 µM (2 of 3 replicates; controls 7 of 9).
Variant GFTLNSYGIS, VIYADGVRTFYGDSVK, GRAAGTFDT gave 9.7 nM (3 of 3 replicates; controls 1 of 9).
Variant GFTLNSNGIS, VIYWDGRRTFYGDSVK, GRAAGTFDH gave 4.5 µM (2 of 3 replicates; controls 1 of 9).
Variant GFTLNSYGIS, VEYRDGRRTFYGDVVK, GRAAGTFDS gave nd (0 of 3 replicates; controls 0 of 9).
Variant GFTLNSYLIS, VIYFDGRRTFYGDPVK, GRAAGTFDS gave 830 nM (1 of 3 replicates; controls 1 of 9).
Variant GFTQNSYGIS, VIYADGRRTFYGDSVK, GRAAGTFDS gave 23 nM (3 of 3 replicates; controls 3 of 9).
Variant GFTLNSYGIS, VIYRDGHRTFYGDSVK, GRAAGTYDS gave 79 µM (1 of 3 replicates; controls 3 of 9).
Variant GFTVNSYGIS, VIYRDGTRTFYGDSVK, GRAAGTFDS gave nd (0 of 3 replicates; controls 0 of 9).

The first 5 entries again:

{"CDR-H1": "GFTLNYYGIS", "CDR-H2": "VIYMDGRRTFYGDSVK", "CDR-H3": "GRAAGPFDS", "Kd (apparent)": "2.1 µM", "replicates with signal": "2/3", "signal with controls": "0/9"}
{"CDR-H1": "GFTLNSYGIS", "CDR-H2": "VIYKDGRRTFGNDSVK", "CDR-H3": "GRAAGTFDS", "Kd (apparent)": "nd", "replicates with signal": "0/3", "signal with controls": "1/9"}
{"CDR-H1": "GFTLNSYGIM", "CDR-H2": "VIYPDGRRTFYGDPVK", "CDR-H3": "GRAAGTFDS", "Kd (apparent)": "nd", "replicates with signal": "0/3", "signal with controls": "1/9"}
{"CDR-H1": "GFTLNSYGIS", "CDR-H2": "VIYPDGRRTFYCDSVA", "CDR-H3": "GRAAGTFDS", "Kd (apparent)": "290 nM", "replicates with signal": "3/3", "signal with controls": "0/9"}
{"CDR-H1": "GFTLNSYGIS", "CDR-H2": "KIYEDGRRTFYGDSVK", "CDR-H3": "GRAAGTFES", "Kd (apparent)": "nd", "replicates with signal": "0/3", "signal with controls": "1/9"}

Nonspecific signal, from three strains lacking the peptide, appeared in 15% of pairings of library AAYL49, centred on 11 µM (5% of these signals below 680 nM); values are not corrected for it. For each scFv, signals with the empty controls are counted beside the result.